Among the data in PubChem BioAssay AID463254 (National Center for Advancing Translational Sciences (NCATS), 2010) are activity change, negative = inhibition values, retold here.

By UniProt entry, the sequences of proteins in these tests, tags left out. Where a name states a change or a piece, a line headed by the entry shows the natural chain unless it says otherwise.
UniProt O75604: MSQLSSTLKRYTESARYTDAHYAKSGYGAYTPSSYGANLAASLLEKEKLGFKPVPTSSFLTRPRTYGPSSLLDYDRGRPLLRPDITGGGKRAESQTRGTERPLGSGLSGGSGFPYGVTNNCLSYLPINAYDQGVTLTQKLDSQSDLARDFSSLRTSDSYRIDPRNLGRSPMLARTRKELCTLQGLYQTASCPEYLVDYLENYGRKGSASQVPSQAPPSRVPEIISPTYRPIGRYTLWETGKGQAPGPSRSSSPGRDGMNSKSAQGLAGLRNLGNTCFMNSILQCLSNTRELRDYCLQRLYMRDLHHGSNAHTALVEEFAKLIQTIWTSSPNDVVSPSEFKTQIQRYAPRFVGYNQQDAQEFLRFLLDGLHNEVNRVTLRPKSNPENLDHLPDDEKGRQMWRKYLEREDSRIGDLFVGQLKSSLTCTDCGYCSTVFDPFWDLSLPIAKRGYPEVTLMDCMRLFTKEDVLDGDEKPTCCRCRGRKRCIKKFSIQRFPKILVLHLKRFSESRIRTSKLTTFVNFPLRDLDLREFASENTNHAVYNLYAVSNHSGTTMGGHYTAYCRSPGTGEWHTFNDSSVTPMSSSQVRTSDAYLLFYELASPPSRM

The list shows a part of the results, in another mix than the full data. Calls of active or inactive are those of the source. Calls come from the whole dose curve; as a rule, active = well fitted inhibition curve with a large enough effect; inconclusive = small, poorly fitted or top-dose-only effect, or effect the other way; inactive = flat fitted curve, though single readings scatter.

The assay deals with Ubiquitin carboxyl-terminal hydrolase 2 (Homo sapiens) (UniProt O75604). As to the kind of experiment: qHTS Assay for Inhibitors of Ubiquitin-specific Protease USP2a Using CHOP2 as the Reporter. Conditions: USP2 core, Ub-CHOP2 coupled fluorogenic reporter, 485/531; at 38.3 µM (top of the series). An excerpt: NIH Molecular Libraries Screening Centers Network [MLSCN] NIH Chemical Genomics Center [NCGC] MLSCN Grant: XO1-MH079852-01 PI Name: Nicholson, Ben. Progenra Inc, Malvern, PA NCGC Assay Overview: Homeostasis of cellular proteins is maintained through a combination of synthesis and degradation. The pathway that accounts for the majority of protein degradation is the ubiquitin-proteasomal pathway. Ubiquitin (Ub) is highly conserved in all cells and the generation of a multi-Ub chain typically targets proteins for degradation by the proteasome. However, ubiquitination is highly reversible and dynamic. Deubiquitination, the reverse process, is catalyzed through the action of enzymes referred to as isopeptidases or deubiquitinating enzymes (DUBs). This group of enzymes is collectively responsible for maintaining adequate pools of free ubiquitin and regulating the ubiquitination status of cellular proteins. The class of DUBs referred to as the ubiquitin-specific proteases (USP) family functions endoproteolytically to cleave Ub chains from a wide range of protein substrates. USP2a deubiquitinates fatty acid synthase (FASN) which has recently been identified as an emerging oncology target. To identify inhibitors of USP2a a cell-free assay was employed. […] The reporter enzyme chosen is an enterokinase called CHOP2, which is activated when the Ub is cleaved by USP2. The free and now activated reporter can subsequently act on its reporter substrate. Thus, this coupled assay gives a fluorescent read-out at excitation/emission wavelengths of 485/531. The assay was developed by Progenra, Inc. and has been licensed for sale by LifeSensors, Inc. as Ub-CHOP2-Reporter-Kit (#PR1101).
NCGC Assay Protocol Summary: The assay buffer, prepared fresh at the day of the assay, contains 20mM Tris-HCl pH 8.0, 2mM CaCl2, 2mM beta-Mercaptoethanol, 0.05% CHAPS. 3ul of 20nM (10nM final) USP2 core, which is stored on ice, is dispensed into a medium-binding black solid Kalypsys 1,536 well plate using the Kalypsys dispenser. The assay plate is then pinned with 23nL compound with the Kalypsys pintool in columns 5-48. The controls are pinned as follows: column 1 two-fold dilutions of 2M NEM in duplicate; column 2 2M NEM (final concentration 38.2mM); column 3&4 DMSO. The assay plate is incubated at RT for 30min. Subsequently, 1.5uL of 100nM (25nM final) Ub-CHOP2 and 1.5uL of 100nM (25nM final) Reporter Substrate (both stored on ice and protected from light) were dispensed into the plate using the Kalypsys dispenser. Plates were read after 60min RT incubation on a ViewLux (Perkin Elmer) plate reader using the following wavelengths Ex 485nm /Em 531nm. Data were normalized to the to AC100 inhibition (NEM). Concentration-response curves were fitted to the normalized data and the concentration-response curves were then classified based on curve quality (r2), response magnitude and degree of measured activity. The time zero reading was used to flag fluorescence artifacts. Keywords: ubiquitination, deubiquitination, proteases, profluorescent, MLSMR, MLPCN, NIH Roadmap, qHTS, NCGC
In the case of `O=[N+]([O-])c1ccc2c(c1)nnn2O`, the activity change, negative = inhibition is inactive: 0.0811%.

On to `N#CCCN(C(=O)COC(=O)C(O)(c1ccccc1)c1ccccc1)c1ccc(F)cc1`, for which the activity change, negative = inhibition was inactive: 0.768%. For `CN(C(=O)Cc1ccccc1)[C@@H]1CC[C@]2(CCCO2)C[C@H]1N1CCCC1`, the activity change, negative = inhibition is inactive: -4.07%. The value for `CCOP1(=S)c2c(C)nn(CCC#N)c2N=C(c2ccc(F)cc2)N1C` (stereo not given) was inactive: 2.75%. The value for `NC(=O)Nc1ccc([As](=O)(O)O)cc1` was inactive: 7.08%; that for `O=C(O)COc1ccc([As](=O)(O)O)cc1[N+](=O)[O-]` was inactive: 0.802%; that for `Nc1ccccc1[As](=O)(O)c1ccccc1` was inactive: 11.7%. Regarding `CS(=O)(=O)c1cc([N+](=O)[O-])c2no[n+]([O-])c2c1`, the activity change, negative = inhibition was inactive: 2.67%. In the case of `CCOP1(=S)c2c(C)nn(CCC#N)c2N=C(c2ccccc2F)N1C` (stereo not given), the activity change, negative = inhibition is inactive: 1.94%. Under `O=P(Nc1nccs1)(Oc1ccccc1)Oc1ccccc1` stands inactive: -4.53%; under `O=P(Nc1nccs1)(c1ccccc1)c1nc2ccccc2s1` (stereo not given), inactive: -0.143%. The value for `COc1cc(C2NCCC3(OCCO3)C2(C)C)cc(OC)c1OC` (stereo not given) was inactive: 3.25%; that for `CCOP(=O)(Nc1cccc2ccccc12)OCC` was inactive: 2.07%; that for `CCCOP(=S)(Nc1nc(N)cc(=O)[nH]1)OCCC` was inactive: -5.39%. Regarding `Cc1ccc(NCCc2c([N+](=O)[O-])cc([N+](=O)[O-])cc2[N+](=O)[O-])cc1`, the activity change, negative = inhibition is inactive: -0.581%. The value for `O=[As](O)(c1cccc(O)c1)c1cccc(O)c1` was inactive: 3.21%; that for `O=[As](O)(O)c1cccnc1` was inactive: 0.349%; that for `COc1cc(C(=O)NCC2(N3CCOCC3)CCCCC2)cc(Cl)c1OC(C)C` was inactive: 1.33%. For the compound `CS(=O)(=O)c1ccc(Cl)c(NC(=O)COC(=O)C(O)(c2ccccc2)c2ccccc2)c1`, the activity change, negative = inhibition was inactive: 3.74%. The value for `O=C(OC1CN2CCC1CC2)c1ccc(Cl)cc1` (stereo not given) was inactive: -1.36%; that for `O=[As](O)(c1ccccc1Br)c1ccccc1Br` was inactive: -1.75%.

As to `CN(C(=O)Cc1ccc(Cl)c(Cl)c1)[C@@H]1CCCC[C@H]1N1CCCC1`, the activity change, negative = inhibition is inactive: 3.49%. The value for `CC(C)/C=N\N=C(\N)N[N+](=O)[O-]` was inactive: -0.377%; that for `COc1ccccc1CNC(=O)COC(=O)C(O)(c1ccccc1)c1ccccc1` was inactive: 0.0629%; that for `Clc1n[nH]nc1-c1nn[nH][15n]1` was inactive: -0.626%. Turning to `CC(C)(C)C(=O)NC(Sc1ncccn1)C(Cl)(Cl)Cl` (stereo not given), the activity change, negative = inhibition is inactive: 2.24%. Regarding `CCOP(=O)(Nc1ccc(C)cn1)OCC`, the activity change, negative = inhibition is inactive: 6.07%. The value for `CCC1=CC2Cc3nc4ccc(Cl)cc4c(N)c3C(C1)C2` (stereo not given) was inactive: 0.812%. The value for `O=P1(Nc2ccccn2)COc2ccccc2OC1` was inactive: 1.12%; that for `CCOP(=O)(NC(=NC(C)c1ccccc1)NC(C)c1ccccc1)OCC` (stereo not given) was inactive: -0.731%; that for `Cc1ccc(OCC(=O)OC2CN3CCC2CC3)cc1` (stereo not given) was inactive: 0.568%. Under `O=[As](O)(c1cccs1)c1cccs1` stands inactive: 18.7%. In the case of `NS(=O)(=O)c1cccc(NC(=O)COC(=O)C(O)(c2ccccc2)c2ccccc2)c1`, the activity change, negative = inhibition was inactive: 3.07%. As for `O=P1(Nc2ccc(Br)cn2)COc2ccccc2OC1`, the activity change, negative = inhibition was inactive: -1.64%.

Consider `Nc1cccc([As](=O)(O)c2ccccc2)c1`, for which the activity change, negative = inhibition is inactive: 10.9%. For `O=P1(Nc2ncccn2)COc2ccccc2OC1`, the activity change, negative = inhibition was inactive: -1.5%. Under `O=C(/C=C/c1ccccc1)OC1CN2CCC1CC2` (stereo not given) stands inactive: 8.65%; under `CN(C)C1(CNC(=O)c2ccc(S(C)(=O)=O)cc2)CCCCC1`, inactive: 0.318%; under `Cc1nn(-c2ccccc2)c2c1P(=O)(N1CCOCC1)N(C)C(c1ccccc1)=N2` (stereo not given), inactive: -0.314%.

`Cc1ccc(C(=O)OC2CN3CCC2CC3)cc1` (stereo not given): the activity change, negative = inhibition was inactive: 6.37%. For the compound `CC1CCC(C(C)C)C(OP(=O)(Nc2ccccn2)c2ccccc2)C1` (stereo not given), the activity change, negative = inhibition is inactive: 0.679%. With `O=[N+]([O-])c1ccc(Nc2ccc(Oc3ccc([N+](=O)[O-])cc3[N+](=O)[O-])cc2)c([N+](=O)[O-])c1`, the activity change, negative = inhibition was inactive: 0.573%. As for `Cc1cc(SC(NC=O)C(Cl)(Cl)Cl)ncn1` (stereo not given), the activity change, negative = inhibition was inactive: -2.18%.

In the case of `O=P(Nc1ccccn1)(c1cccc2ccccc12)c1cccc2ccccc12`, the activity change, negative = inhibition is inactive: 0.836%. Under `CCOC(=O)Nc1cccc([As](=O)(O)O)c1` stands inactive: 4.08%; under `CCCCOc1ccc(C(=O)NCC2(N3CCCCC3)CCCCC2)cc1OC`, inactive: 1.09%; under `Cc1cc(SC(NC(=O)c2ccccc2)C(Cl)(Cl)Cl)nc(C(C)C)n1` (stereo not given), inactive: -1.15%. The value for `CCOC(=O)Nc1ccc([As](=O)(O)O)c(O)c1` was inactive: 1.24%. The value for `CCC(C)N(CC(C)C)C(=S)SC(NC(C)=O)C(Cl)(Cl)Cl` (stereo not given) was inactive: 0.889%; that for `CCOC(=O)c1ccc(NC(=O)C(C)(CCl)SC)cc1` (stereo not given) was inactive: 1.83%.
